Drawing on PubChem BioAssay AID1220 (Sanford-Burnham Center for Chemical Genomics, 2008), this text covers inhibition for 67 compounds.

Amino acid sequences for entries named in this document (tags omitted).
UniProt P34949, whole entry: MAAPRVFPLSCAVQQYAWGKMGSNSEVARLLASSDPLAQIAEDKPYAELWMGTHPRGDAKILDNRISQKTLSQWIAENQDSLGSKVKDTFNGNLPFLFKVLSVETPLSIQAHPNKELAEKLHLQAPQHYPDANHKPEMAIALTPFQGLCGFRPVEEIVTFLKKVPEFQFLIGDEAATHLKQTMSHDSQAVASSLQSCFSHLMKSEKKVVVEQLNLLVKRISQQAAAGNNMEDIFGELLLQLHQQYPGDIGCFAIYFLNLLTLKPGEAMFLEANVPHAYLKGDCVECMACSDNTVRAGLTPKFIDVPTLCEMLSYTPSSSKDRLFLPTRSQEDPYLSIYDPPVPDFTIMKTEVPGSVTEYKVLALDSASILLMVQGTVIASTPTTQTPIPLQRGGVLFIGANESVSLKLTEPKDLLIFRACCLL

The list shows a part of the results, in another mix than the full data. Active and inactive are the calls of the source. Cut-off read from the data, not from the text of the source: active = inhibition above about 50%; inactive = the rest.

The assay concerns the target Mannose-6-phosphate isomerase (Homo sapiens) (UniProt P34949). The assay is described as follows: human PMI inhibitors, high substrate, primary screen, biochemical, fluorescence intensity, high mannose 6-phosphate (AID 1220). As to conditions: recombinant PMI enzyme, coupled fluorescence intensity; at 20 µM; hits give high values.
Consider `CP(=O)(Nc1ccc2c(c1)OCCO2)Oc1ccccc1` (configuration not stated), for which the inhibition was inactive: -2.1%.

Turning to `Cc1ccccc1NP(C)(=O)Nc1ccccc1C`, the inhibition was inactive: 3.5%.

Take `CCOP(C)(=S)SCC(=O)NC(C)(CC)C(=O)O` (configuration not stated): the inhibition was inactive: 16.4%.

`O=[N+]([O-])c1cc([N+](=O)[O-])c(NCC2CCS(=O)(=O)C2)c([N+](=O)[O-])c1` (configuration not stated): the inhibition is inactive: 35.7%.

For the compound `COc1ccc(OP(C)(=O)Nc2cccc(Br)c2)cc1` (configuration not stated), the inhibition is inactive: 0.9%.

With `CN(C)CCOC(=O)C(O)(c1ccccc1)C1CCCCC1` (configuration not stated), the inhibition is inactive: 4.1%.

Consider `COc1ccc(NP(C)(=O)Oc2ccccc2OC)cc1` (configuration not stated), for which the inhibition is inactive: -7.1%.

As to `CCN(CC)CCCOC(=O)C(O)(c1ccccc1)C1CCCCC1` (configuration not stated), the inhibition was inactive: -18.2%.

For the compound `CP(=O)(Nc1ccccc1)Oc1ccc(F)cc1` (configuration not stated), the inhibition was inactive: -9.7%.

Consider `CCOC(=O)c1ccc(NP(C)(=O)Oc2ccc(F)cc2)cc1` (configuration not stated), for which the inhibition was inactive: 0.7%.

As for `COc1ccc(OP(C)(=O)Nc2ccc(SC(F)(F)F)cc2)cc1` (configuration not stated), the inhibition is inactive: -13.1%.

Take `O=C(OCCN1CCN(CCOCc2ccccc2)CC1)C(O)(c1ccccc1)c1ccccc1`: the inhibition is inactive: -26.9%.

Regarding `CP(=O)(Nc1ccccc1F)Oc1ccccc1` (configuration not stated), the inhibition is inactive: 0.4%.

On to `CC(C)c1ccc(OP(C)(=O)Nc2ccc(SC(F)(F)F)cc2)cc1` (configuration not stated), for which the inhibition was inactive: 18.9%.

Take `Cc1c(NP(C)(=O)Oc2ccc(C(C)C)cc2)c(=O)n(-c2ccccc2)n1C` (configuration not stated): the inhibition is inactive: -15.4%.

As for `COc1ccccc1OP(C)(=O)Nc1ccc(C)cc1C` (configuration not stated), the inhibition was inactive: 3.4%.

In the case of `CP(=O)(Nc1ccccn1)Oc1ccccc1` (configuration not stated), the inhibition was inactive: 3.6%.

On to `CCc1ccc(OP(C)(=O)O)cc1`, for which the inhibition was inactive: 3.2%.

On to `COc1ccc(OP(C)(=O)Nc2ccccn2)cc1` (configuration not stated), for which the inhibition was inactive: 5.6%.

`CN(C)CCOC(=O)C(O)(c1ccccc1)C1CCCC1` (configuration not stated): the inhibition is inactive: -6.1%.

As for `CP(=O)(OCCOc1ccccc1)OCCOc1ccccc1`, the inhibition is inactive: 12.3%.

For the compound `CP(=O)(Nc1ccc(Cl)cc1Cl)Oc1ccccc1` (configuration not stated), the inhibition is inactive: -1.2%.

As for `Cc1cc(C)cc(OP(C)(=O)Nc2cccc(C(F)(F)F)c2)c1` (configuration not stated), the inhibition is inactive: 12.1%.

In the case of `COc1ccccc1OP(C)(=O)Nc1ccc(C)c(C)c1` (configuration not stated), the inhibition was inactive: -2.7%.

Regarding `COc1ccc(OP(C)(=O)Nc2ccccc2Br)cc1` (configuration not stated), the inhibition was inactive: -5.7%.

Turning to `CCOC(=O)c1ccc(NP(C)(=O)Oc2ccc(Cl)cc2)cc1` (configuration not stated), the inhibition was inactive: -3.9%.

Turning to `CP(=O)(OC12CC3CC(CC(C3)C1)C2)OC12CC3CC(CC(C3)C1)C2`, the inhibition was inactive: -2.6%.

With `CC(C)(C)c1ccc(OP(C)(=O)O)cc1`, the inhibition is inactive: -4.8%.

For the compound `COc1ccccc1OP(C)(=O)Nc1ccccc1Br` (configuration not stated), the inhibition was inactive: -7.8%.

Turning to `CP(=O)(Nc1ccc(Cl)cc1)Oc1ccc(F)cc1` (configuration not stated), the inhibition was inactive: -3.2%.

For the compound `CN(C)C(=O)c1c([N+](=O)[O-])cc([N+](=O)[O-])cc1[N+](=O)[O-]`, the inhibition is active: 53.4%.

For `COc1ccc(OP(C)(=O)Nc2ccc(Br)cc2)cc1` (configuration not stated), the inhibition is inactive: 11.3%.

Regarding `CCN(CC)CC(O)COC(=O)C(O)(c1ccccc1)C1CCCCC1` (configuration not stated), the inhibition is inactive: -2.3%.

Take `COc1ccccc1OP(C)(=O)Nc1c(C)n(C)n(-c2ccccc2)c1=O` (configuration not stated): the inhibition is inactive: 7.3%.

As to `CCc1ccc(OP(C)(=O)Nc2cccnc2)cc1` (configuration not stated), the inhibition is inactive: -1.4%.

In the case of `CP(=O)(Oc1ccccc1)N1CCOC1=O` (configuration not stated), the inhibition was inactive: 3.7%.

`CCOC(=O)c1ccc(NP(C)(=O)Oc2ccc(OC)cc2)cc1` (configuration not stated): the inhibition is inactive: -9.5%.

Take `CCOP(C)(=S)SCC(=O)NC(C)C(=O)O` (configuration not stated): the inhibition is inactive: 9.6%.

As to `CP(=O)(Nc1ccccn1)Oc1ccc(Cl)cc1` (configuration not stated), the inhibition was inactive: -3.3%.

In the case of `CP(=O)(Oc1ccccc1)OC(c1ccccc1)C(F)(F)F` (configuration not stated), the inhibition was inactive: 0.1%.

`Cc1cccc(C)c1OP(C)(=O)Nc1ccc(SC(F)(F)F)cc1` (configuration not stated): the inhibition was inactive: 25.3%.

Take `Cc1cc(C)cc(OP(C)(=O)Nc2ccc(SC(F)(F)F)cc2)c1` (configuration not stated): the inhibition is inactive: 15.5%.

Consider `CP(=O)(NC(=O)Nc1ccccc1)Oc1ccccc1` (configuration not stated), for which the inhibition is inactive: -1.8%.

Consider `CP(=S)(Nn1cnnc1)Oc1ccccc1` (configuration not stated), for which the inhibition was inactive: 9.7%.

`CP(=O)(Nc1ccccc1Br)Oc1ccccc1` (configuration not stated): the inhibition was inactive: 3.3%.

Regarding `COc1ccccc1OP(C)(=O)Nc1ccccc1` (configuration not stated), the inhibition was inactive: 0.7%.

For the compound `Cc1ccc(NP(C)(=O)Oc2ccccc2)c(C)c1` (configuration not stated), the inhibition was inactive: -7.5%.

Consider `COc1ccccc1OP(C)(=O)Nc1ccc(C)cc1` (configuration not stated), for which the inhibition was inactive: 9.4%.

For the compound `CCOC(=O)c1ccc(NP(C)(=O)Oc2ccccc2)cc1` (configuration not stated), the inhibition was inactive: 6.3%.

Turning to `Cc1cc(C)cc(OP(C)(N)=O)c1` (configuration not stated), the inhibition was inactive: 8.5%.

For `COc1ccc(OP(C)(=O)Nc2cccc(F)c2)cc1` (configuration not stated), the inhibition is inactive: 2.6%.

For the compound `COc1ccccc1OP(C)(=O)Nc1cc(Cl)ccc1C` (configuration not stated), the inhibition was inactive: 4.5%.

Consider `Cc1cccc(C)c1OP(C)(N)=O` (configuration not stated), for which the inhibition is inactive: -35%.

On to `CC(C)(C)c1ccc(OP(C)(=O)Nc2ccc(SC(F)(F)F)cc2)cc1` (configuration not stated), for which the inhibition is inactive: 12.2%.

As for `CCN(CC)CCCOC(=O)C(O)(c1ccccc1)c1ccccc1`, the inhibition is inactive: -3.7%.

Consider `Cc1ccc(C)c(NP(C)(=O)Oc2ccccc2)c1` (configuration not stated), for which the inhibition is inactive: -0.2%.

Regarding `CP(=O)(Nc1cccc(Br)c1)Oc1ccccc1` (configuration not stated), the inhibition was inactive: 7.9%.

In the case of `Cc1cc(C)cc(OP(C)(=O)Nc2ccccn2)c1` (configuration not stated), the inhibition was inactive: 6.5%.

As for `CCOC(=O)c1ccc(NP(C)(=O)Oc2cc(C)cc(C)c2)cc1` (configuration not stated), the inhibition was inactive: 4.6%.

For `Cc1cc(C)cc(OP(C)(=O)Nc2ccc(C)cc2C)c1` (configuration not stated), the inhibition was inactive: 3.1%.

On to `CC1=NCCc2c1[nH]c1ccccc21.O=[N+]([O-])c1cc([N+](=O)[O-])c(O)c([N+](=O)[O-])c1`, for which the inhibition is inactive: -2.2%.

Turning to `COc1ccccc1OP(C)(=O)Nc1c(C)cccc1C` (configuration not stated), the inhibition was inactive: -5.9%.

As for `CN1CCCCC1COC(=O)C1(O)c2ccccc2CCc2ccccc21` (configuration not stated), the inhibition is inactive: 15.3%.

In the case of `CP(=O)(Nc1ccc(SC(F)(F)F)cc1)Oc1ccccc1` (configuration not stated), the inhibition was inactive: 2.9%.

Turning to `CCCOc1ccc(NP(C)(=O)Oc2ccc(Cl)cc2)cc1` (configuration not stated), the inhibition was inactive: 2.1%.

In the case of `Cc1nc2ccc3ccccc3c2s1.O=[N+]([O-])c1cc([N+](=O)[O-])c(O)c([N+](=O)[O-])c1`, the inhibition was inactive: 20%.

For the compound `O=[N+]([O-])c1cc([N+](=O)[O-])c(-n2nnc3ccccc32)c([N+](=O)[O-])c1`, the inhibition is inactive: 3.4%.

The inhibition is the change of the read-out against control, counted positive when it falls.
